Test system: urease

For `O=C1c2ccccc2C(=O)N1SC(Cl)(Cl)C(Cl)Cl`, the “urease inhibitor effect (in words)” value was “No outstanding inhibitor effect”.
With `O=C1C2C3C=CC(C3)C2C(=O)N1SC(Cl)(Cl)C(Cl)Cl` (centres unmarked) the “urease inhibitor effect (in words)” value was “No outstanding inhibitor effect”.
